Values quoted from earlier work, collected in US20170074857A1, “MEDICATION ADHERENCE MONITORING DEVICE” (UNIVERSITY OF FLORIDA RESEARCH FOUNDATION, INC., priority 2014, published 2017).

Conditions: cited from earlier work

## 2-propanol (isopropyl alcohol)
  LD50 Oral Rat: 6045 mg/kg
